Target: BRD4(1) (amino acids 44-168) (Homo sapiens (Human), UniProt O60885)
Assay: BRD4 binding strength, TR-FRET (HTRF) assay of BRD4(1) / acetylated histone H4 peptide interaction
Details: inhibition of BRD4(1)/Ac-H4 peptide interaction
From the text: To assess the BRD4 binding strength of the compounds according to the invention, the ability thereof to inhibit the interaction between BRD4 and acetylated histone H4 in a dose-dependent manner was quantified. For this purpose, a time-resolved fluorescence resonance energy transfer (TR-FRET) assay was used, which measures the binding between N-terminally His6-tagged BRD4(1) (amino acids 44-168) and a synthetic acetylated histone H4 (Ac-H4) peptide with sequence […]-biotin. The recombinant BRD4 protein produced in-house according to Filippakopoulos et al., Cell, 2012, 149:214-231 was expressed in E. coli and purified by means of (Ni-NTA) affinity and (Sephadex G-75) size exclusion chromatography. The Ac-H4 peptide can be purchased, for example, from Biosyntan (Berlin, Germany). […] For this purpose, 100-fold concentrated solutions in DMSO were prepared by serial dilutions (1:3.4) of a 2 mM stock solution into a clear, 384-well microtitre plate (Greiner Bio-One, Frickenhausen, Germany). From this, 50 nl were transferred into a black test plate (Greiner Bio-One, Frickenhausen, Germany). […] The formation of BRD4/Ac-H4 complexes was determined by the measurement of the resonance energy transfer from the streptavidin-Eu cryptate to the anti-6His-XL665 antibody present in the reaction. […]

`Cc1nnc2n1-c1ccccc1C(c1ccc(Cl)cc1)=CC2CC(=O)OC(C)(C)C` (stereo in doubt) [Example 9, tert-butyl (−)-[(4R)-6-(4-chlorophenyl)-1-methyl-4H-[1,2,4]triazolo[4,3-a][1]benzazepin-4-yl]acetate] gave an IC50 of 0.2 µM.
